The text below walks through data of patent US6335457B1, “Complex containing biologically assimilable orthosilicic acid, which is under solid form, stable and concentrated, and a process for preparation of said complex” (Exsymol S.A.M., priority 1999, dated 2002).

Where two headings read alike, the source gives them in different places.

The conditions of data set [1]: above it oligomers and polymers form; cited from earlier work.
For data set [2] the following is noted: rat duodenum; for % of silicon diffusion: pH 8.5, 37° C.

With “orthosilicic acid [Monomeric orthosilicic acid]”, the “concentration up to which relatively stable in solution” value in data set [1] is given as “about 10^−4 Mol.l^−1”.
For “orthosilicic acid [Non stabilised orthosilicic acid]”, the “diffusion through the duodenal wall, in words” value in data set [2] (pH 8.5) is reported as “weak diffusion”. The “% of silicon diffusion” value in data set [2] (time 0 min) worked out at 0%; in data set [2] (time 24 min) it was 0.67%; in data set [2] (time 28 min), 0.99%; in data set [2] (time 34 min) it was 1%; in data set [2] (time 48 min) it was 1.16%; in data set [2] (time 56 min) it was 1.54%. In addition, the “% of silicon diffusion” value is listed as 1.75% in data set [2] (time 60 min); 1.86% in data set [2] (time 68 min); 2.08% in data set [2] (time 70 min); 2.13% in data set [2] (time 74 min); 2.54% in data set [2] (time 85 min); 2.67% in data set [2] (time 90 min).
